The source of these data is paper PMC12154284, “FYCO1 Peptide Analogs: Design and Characterization of Autophagy Inhibitors as Co-Adjuvants in Taxane Chemotherapy of Prostate Cancer” (International Journal of Molecular Sciences, 2025).

For orientation: Kd means the free concentration of one partner at which half of the binding sites on the other are occupied at equilibrium, for simple one-to-one binding.

Experiment [1] has as its target human recombinant His-tagged LC3B (Homo sapiens, UniProt Q9GZQ8). Put plainly: MST binding to human recombinant His-tagged LC3B. The note with it: for Kd: MST power 40%, exc. power 20%, 25 °C, LC3B 10 nM, two independent experiments, read-out: Kd (Table S1). The protocol:
To measure the dissociation constants (Kd) of the peptides on human recombinant His-tagged LC3B protein, MST experiments were carried out on a Monolith NT.115^Pico instrument (see the Materials and Methods section for details). […] To note, the slightly lower Kd value observed by Cerulli and coworkers could be explained by the presence of additional D and W residues in the amino- and carboxy-terminal groups, respectively, in the FYCO1 sequence tested by them. Next, the binding affinity of the peptides AM2, AM6, AM7, and AM10 to the human LC3B protein was assessed. […] In addition, from the MST experiments, it is clearly observable that the iodine group of AM2 stabilizes the complex; in fact, the points of the Kd curve fit much better, and this is reflected in a high signal-to-noise ratio (SNR) value (14.4, Supplementary Materials, Table S1).
The interaction between peptides (FYCO1-LIR, AM2, AM6, AM7, AM10) and the LC3B protein was evaluated using the Monolith NT.115^Pico instrument (NanoTemper Technologies GmbH, München, Germany). This technique enables the determination of the dissociation constant (Kd) across a concentration range spanning from 1 picomolar (pM) to the millimolar (mM) level. The experimental conditions mirrored those in our previously published work. […] A constant concentration of red-labelled LC3B (10 nM) was incubated with sixteen 1:1 serial dilutions of peptides (concentration details are consultable in the Supplementary Materials, Table S1). […] After 15 min of incubation at room temperature, samples were loaded into standard capillaries (Product No. MO-K022; NanoTemper Technologies) and analyzed at 25 °C with 20% excitation power and medium MST power (40%) using the “Binding Affinity” mode available in the MO.Control v1.6 software (NanoTemper Technologies GmbH, München, Germany). Prior to Kd determination, peptide auto-fluorescence was assessed. […] The “Capillary Scan” graphs, showing the fluorescence homogeneity in the capillaries of all biophysically tested peptides, are provided in the Supplementary Materials, Figure S5. […]

The next experiment concerns MCF-7 cells. Description: MTS cell viability, MCF-7. The format is cell-based. The note with it: 72 h. As for the experimental part: The study was conducted on several cancer cells. Human CRPC cell lines (PC-3 and DU145) were purchased from the American Type Culture Collection (ATCC, Manassas, VA, USA) and cultured at 37 °C and 5% CO2 in RPMI 1640 (EuroClone, Milano, Italy) supplemented, respectively, with 7.5% (PC3) and 5% (DU145) FBS (Gibco, ThermoFisher Scientific, Waltham, MA, USA), 1% L-glutamine, and antibiotics (100 IU/mL penicillin G). […]
For viability studies, MTS (Cell Titer 96 Aqueous One Solution Cell Proliferation Assay) (Promega, Nacka, Sweden) and 3-(4,5-dimethylthiazole-2-yl)-2,5-diphenyltetrazolium bromide (MTT) (Sigma-Aldrich, St. Louis, MO, USA) assays were conducted. […] The absorbance (λ = 550 nm) was measured by an EnSpire Multimode Plate reader (Perkin Elmer, Milano, Italy). The absorbance value of untreated cells was set at 100% (control), and the viability of treated cells was expressed as a percentage of the control. […] After 72 h, cell viability was assessed using an MTS assay according to the manufacturer’s protocol using a 96-well-plate spectrophotometer (Varioskan Flash Multimode Reader; ThermoFisher Scientific, Waltham, MA, USA) set at λ = 490 nm. The absorbance value of untreated cells was set at 100% (control), and the viability of treated cells was expressed as a percentage of the control. […]

Experiment [2] concerns LC3-I and LC3-II in PC-3 cells. Put plainly: Western blot of LC3-I and LC3-II in PC-3 cells. The format is cell-based, Human. The protocol: PC-3 cells were plated at 2 × 10^5 cells/dish in 6 cm dishes and treated with different compounds. At the end of the treatments the cells were lysed in RIPA buffer. Protein extracts (15–35 μg) were resuspended in presence of reducing Sample buffer (Bio-Rad Laboratories, Segrate, Milano, Italy), heated at 95 °C for 5 min and separated by SDS-PAGE WB. Proteins were transferred onto nitrocellulose or PVDF membranes. After blocking with nonfat dried milk, membranes were incubated with anti-ATG5 (1:1000) (#12994) Cell Signaling Technology Inc. (Boston, MA, USA), anti-LC3 (1:1000) (L8918) (Sigma-Aldrich), anti-SQSTM1/p62 (1:2000) (PA5-20839) (Thermo Fisher Scientific, Waltham, MA, USA), anti-cleaved-caspase-3 (1:500) (#9664) Cell Signaling Technology Inc. primary antibodies overnight at 4 °C. Horseradish peroxidase (HRP) conjugated secondary anti-rabbit or anti-mouse antibodies were used for 1 h at room temperature and the membranes were processed using chemiluminescence kit Cyanagen Ultra (Cyanagen, Bologna, Italy). In each WB experiment alpha-tubulin expression (T6199) (Sigma-Aldrich, St. Louis, MO, USA) was evaluated as a protein control. Relative optical density of the bands was assessed by ImageJ software (version 1.54g). Uncropped WB images are available in the Supporting Information.
(In western blotting, separated proteins are transferred to a membrane and probed.)

Turning to `CC[C@H](C)[C@H](NC(=O)[C@H](CC(=O)O)NC(=O)[C@H](Cc1ccc(I)cc1)NC(=O)[C@@H](NC(=O)[C@H](C)NC(=O)[C@@H](N)CC(=O)O)C(C)C)C(=O)N[C@H](C(=O)N[C@H](C(=O)N[C@@H](CC(=O)O)C(=O)N[C@@H](CCC(=O)O)C(=O)N[C@@H](CCC(=O)O)C(=O)N[C@@H](CC(C)C)C(=O)O)[C@@H](C)O)[C@@H](C)CC` [AM2], the “Kd relative to FYCO1-LIR, in words” value in experiment [1] (MST) is “nearly halved the Kd value”. In the case of `CC[C@H](C)[C@H](NC(=O)[C@H](CC(=O)O)NC(=O)[C@H](Cc1ccccc1)NC(=O)[C@@H](NC(=O)[C@H](C)NC(=O)[C@@H](N)CC(=O)O)C(C)C)C(=O)N[C@@H](CCSC)C(=O)N[C@H](C(=O)N[C@H]1CSSC[C@@H](C(=O)O)NC(=O)[C@H](CCC(=O)O)NC(=O)[C@H](CCC(=O)O)NC1=O)[C@@H](C)O` [AM6], the Kd in experiment [1] came out at 0.615 ± 0.228 µM.

For `CC[C@H](C)[C@H](NC(=O)[C@H](CC(=O)O)NC(=O)[C@H](Cc1ccc(I)cc1)NC(=O)[C@@H](NC(=O)[C@H](C)NC(=O)[C@@H](N)CC(=O)O)C(C)C)C(=O)N[C@@H](CCSC)C(=O)N[C@H](C(=O)N[C@H]1CSSC[C@@H](C(=O)O)NC(=O)[C@H](CCC(=O)O)NC(=O)[C@H](CCC(=O)O)NC1=O)[C@@H](C)O` [AM10], the “responsiveness of MCF-7 relative to A549 and A375” value in the experiment on MCF-7 cells is listed as “MCF-7 cells are more responsive than the other tested cell lines”. Further, in experiment [2] (5 µM), the “LC3-II/LC3-I ratio, 48 h” value is recorded as “without modifying the LC3-II/LC3-I ratio”. Further, in experiment [2] (48 h), the “LC3-II/LC3-I ratio, Doc/AM10 experiment” value is on record as “does not determine a change in the LC3-II/LC3-I ratio”. In the case of `CC[C@H](C)[C@H](NC(=O)[C@H](CC(=O)O)NC(=O)[C@H](Cc1ccccc1)NC(=O)[C@@H](NC(=O)[C@H](C)NC(=O)[C@@H](N)CC(=O)O)C(C)C)C(=O)N[C@H](C(=O)N[C@H](C(=O)N[C@@H](CC(=O)O)C(=O)N[C@@H](CCC(=O)O)C(=O)N[C@@H](CCC(=O)O)C(=O)N[C@@H](CC(C)C)C(=O)O)[C@@H](C)O)[C@@H](C)CC` [FYCO1-LIR, reference compound], the Kd in experiment [1] was found to be 3.59 ± 1.16 µM.
